Measured values reported in US8268836B2, “Compound useful as a c-Met inhibitor” (Eli Lilly and Company, priority 2010, dated 2012).

By UniProt entry, the sequences of proteins in these tests, tags left out. Residues count along the entry.
UniProt P08581, 25-1390 limits assumed: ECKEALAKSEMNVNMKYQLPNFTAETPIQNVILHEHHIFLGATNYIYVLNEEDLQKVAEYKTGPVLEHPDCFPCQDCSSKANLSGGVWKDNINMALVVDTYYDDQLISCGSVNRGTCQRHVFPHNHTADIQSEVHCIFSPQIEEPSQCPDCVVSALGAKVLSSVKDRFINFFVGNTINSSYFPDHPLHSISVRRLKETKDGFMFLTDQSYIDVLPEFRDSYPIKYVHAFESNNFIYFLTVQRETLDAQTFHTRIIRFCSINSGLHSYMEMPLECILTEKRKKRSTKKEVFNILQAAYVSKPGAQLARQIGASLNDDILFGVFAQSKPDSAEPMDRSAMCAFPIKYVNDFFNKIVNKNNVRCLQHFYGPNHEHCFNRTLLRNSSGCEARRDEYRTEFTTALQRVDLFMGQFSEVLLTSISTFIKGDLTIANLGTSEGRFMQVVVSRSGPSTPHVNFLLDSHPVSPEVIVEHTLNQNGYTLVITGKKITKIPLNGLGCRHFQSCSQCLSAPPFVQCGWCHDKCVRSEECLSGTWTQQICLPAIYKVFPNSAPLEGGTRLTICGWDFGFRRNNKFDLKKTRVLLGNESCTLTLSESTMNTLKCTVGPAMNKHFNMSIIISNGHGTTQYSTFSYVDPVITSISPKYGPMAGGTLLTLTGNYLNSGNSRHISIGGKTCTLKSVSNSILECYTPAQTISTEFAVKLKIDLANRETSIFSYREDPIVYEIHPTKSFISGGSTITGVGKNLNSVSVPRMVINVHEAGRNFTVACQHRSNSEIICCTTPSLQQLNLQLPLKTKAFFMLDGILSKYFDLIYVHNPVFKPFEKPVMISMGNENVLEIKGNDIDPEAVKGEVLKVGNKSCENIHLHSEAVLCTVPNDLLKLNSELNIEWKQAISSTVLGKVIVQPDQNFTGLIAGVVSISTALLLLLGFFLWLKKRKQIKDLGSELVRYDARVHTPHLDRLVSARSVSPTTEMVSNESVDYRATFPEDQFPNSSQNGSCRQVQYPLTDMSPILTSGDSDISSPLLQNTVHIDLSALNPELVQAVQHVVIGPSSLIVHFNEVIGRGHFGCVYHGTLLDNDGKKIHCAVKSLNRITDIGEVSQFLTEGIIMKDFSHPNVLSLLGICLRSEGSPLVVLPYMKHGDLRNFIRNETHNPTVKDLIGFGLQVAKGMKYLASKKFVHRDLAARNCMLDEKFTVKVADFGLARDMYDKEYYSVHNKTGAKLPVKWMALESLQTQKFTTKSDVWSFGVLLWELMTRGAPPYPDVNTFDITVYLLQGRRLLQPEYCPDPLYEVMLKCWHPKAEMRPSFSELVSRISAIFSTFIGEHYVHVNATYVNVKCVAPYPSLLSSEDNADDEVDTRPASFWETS

Assays:
[1] = Kinetic solubility screen (nephelometry); settings: 50 mM phosphate buffer pH 7.4, 2 h RT, from 10 mM DMSO
Protocol: The assay is used to determine the concentration range in which a compound that has been pre-solubilized in DMSO at 10 mM will precipitate from a solution. The assay is conducted in a screening format on a 96-well plate and measures the nephelometry (light scattering) from precipitated compound in aqueous phosphate buffer (50 mM; pH 7.4). This method consists of a 2-hour RT (room temperature) incubation of compound in buffer at concentrations of 10, 20, 40, 60, 80, and 100 μM (where % DMSO is kept constant). Plates are pre-read by the nephelometer to determine if scratches or dust particles are present and this is used for background subtraction. The reported values are the concentrations at which the last soluble and first insoluble are achieved. These assays are not optimized to assess equilibrium solubility or determine a “true” kinetic solubility.

cMet enzyme = cMet enzyme (Homo sapiens, UniProt P08581); test: cMet Homogeneous Time Resolved Fluorescence (HTRF) in vitro assay; settings: read-out: c-Met IC50 (HTRF); relative IC50
Excerpt: This assay is based on HTRF technology and it is used to detect the phosphorylation of biotin labeled tyrosine peptide by cMet enzyme. After the reaction is completed, XL665 labeled streptavidin is used to recognize the biotin unit and a Europium (Eu3+) labeled anti-phospho-tyrosine antibody is used to recognize the phosphorylated tyrosine. The detection process relies on the transfer of energy between the excited Eu3+ and the XL665 labeled streptavidin. The aim of this protocol is to calculate the ability of test compounds to inhibit the phosphorylation of the product of this reaction and calculate their relative IC50 values.
A reference compound, if desired, may be prepared as a 1 mM stock solution in 100% DMSO and test compounds are prepared as 10 mM stock solutions in 100% DMSO. 1 mM reference compound and 10 mM test compounds are pre-diluted to 8 μM and 80 μM 10% DMSO solutions in a 96-well dilution plate. Compounds are serially diluted (1:3) using Tecan Freedom EVO 200 and 10-point dilution curves are generated for each of the compounds tested. 10 μL of serially diluted compounds are transferred to a 96-well assay plate using Temo (Tecan). […] The assay plate is incubated at RT for 60 min before reading the fluorescence signals at 620 nm emission and 665 nm […] in a Victor3 instrument (PerkinElmer Corporation). […]

[2] = Plasma concentration in IVTI studies; settings: mouse, oral, 10% acacia
Protocol: In IVTI studies, each compound is administered orally and formulated in 10% w/v acacia. Mouse blood samples are collected with anti-coagulant (EDTA-purple top Vacutainer tube) post-dose using cardiac puncture techniques. Tubes are inverted for 3-5 times and are placed on ice until centrifugation at 3000 RPM (1800×g) for 10 min at 4° C. to obtain plasma. Aliquots of plasma are pipetted and stored in a clean 96 well plate. Plasma samples are stored immediately at −80° C. Shipments of plasma samples are packed in dry ice and samples are frozen at −80° C. until analysis.
A 0.1-mg/mL stock solution of each drug was prepared and is serially diluted into pooled mouse plasma to prepare standards ranging from 1 to 5000 ng/mL. Plasma standards or samples (0.025 mL) in 96-well plates are treated by protein precipitation with the addition of a 0.1-0.2 ml of methanol: acetonitrile (1/1, v/v) containing internal standard. […] Samples and standards are analyzed with a Sciex API 4000 Triple Quadrupole Mass Spectrometer (Sciex, Division of MDS Inc., Toronto, Canada) coupled to a Shimadzu HPLC System (LC-10AD, Shimadzu Corporation) and a Gilson 215 Autosampler. […] Quantitation is performed using multiple reaction monitoring (MRM) at the following transitions: Example 1 (m/z 363.05 to m/z 163.10) and the reference compound 20 (m/z 363.05 to m/z 163.10). […]

Cn1cc(-c2ccc3nnc(Sc4ccc5ncn(C)c5c4)n3n2)cn1
1st insoluble pH 7.4 [1]: 49 μM
Last soluble pH 7.4 [1]: 29 μM
IC50 (cMet enzyme): 15 nM
Plasma conc. 8 mg/Kg after 8 h ([2]; 8 mg/kg): 14 ng/mL
Plasma conc. 20 mg/Kg after 8 h ([2]; 20 mg/kg): 17 ng/mL
